Measured values taken from patent US7557215B2, “Anthraquinone compounds as anti cancer compounds” (Somanta Limited, priority 2003, dated 2009).

What follows are substances tested on A2780 (assay: Inhibition of cell growth, A2780 wild type ovarian carcinoma cell line). Settings: read-out: Inhibition of cell growth A2780 nM (IC50), Table 2.
“1-{[2-(2,6-Dichloromethylpiperidin-1-yl)ethyl]-amino}-4-{[(2-dimethylamino)ethyl]amino}-5,8-dihydroxyanthracene-9,10-dione” gave an IC50 of 24 nM.
With “1-{[2-(2-Chloromethylpiperidin-1-yl)ethyl]-amino}-4-{[(2-dimethylamino)ethyl]amino}-5,8-dihydroxyanthracene-9,10-dione” the IC50 was 40 nM.
“1-{[2-(2-Chloromethylpyrrolidin-1-yl)ethyl]-amino}-4-{[(2-Dimethylamino)ethyl]amino}-5,8-dihydroxyanthracene-9,10-dione” gave an IC50 of 29 nM.
Work on “1-{[2-(3-Chloropiperidin-1-yl)ethyl]amino}-4-{[(2-dimethylamino)ethyl]amino}-5,8-dihydroxyanthracene-9,10-dione” yielded an IC50 of 9 nM.
In the case of “1-{[2-(3-Chloropyrrolidin-1-yl)ethyl]amino}-4-{[(2-dimethylamino)ethyl]amino}-5,8-dihydroxyanthracene-9,10-dione”, the IC50 is reported as 68 nM.
“1-{[2-(4-Chloropiperidin-1-yl)ethyl]amino}-4-{[(2-dimethylamino)ethyl]amino}-5,8-dihydroxyanthracene-9,10-dione” gave an IC50 of 576 nM.
